The term IC50 denotes the concentration needed to halve the response being measured.

The chains behind the UniProt entries cited, without tags or fusion partners.
UniProt Q7L7X3, whole entry: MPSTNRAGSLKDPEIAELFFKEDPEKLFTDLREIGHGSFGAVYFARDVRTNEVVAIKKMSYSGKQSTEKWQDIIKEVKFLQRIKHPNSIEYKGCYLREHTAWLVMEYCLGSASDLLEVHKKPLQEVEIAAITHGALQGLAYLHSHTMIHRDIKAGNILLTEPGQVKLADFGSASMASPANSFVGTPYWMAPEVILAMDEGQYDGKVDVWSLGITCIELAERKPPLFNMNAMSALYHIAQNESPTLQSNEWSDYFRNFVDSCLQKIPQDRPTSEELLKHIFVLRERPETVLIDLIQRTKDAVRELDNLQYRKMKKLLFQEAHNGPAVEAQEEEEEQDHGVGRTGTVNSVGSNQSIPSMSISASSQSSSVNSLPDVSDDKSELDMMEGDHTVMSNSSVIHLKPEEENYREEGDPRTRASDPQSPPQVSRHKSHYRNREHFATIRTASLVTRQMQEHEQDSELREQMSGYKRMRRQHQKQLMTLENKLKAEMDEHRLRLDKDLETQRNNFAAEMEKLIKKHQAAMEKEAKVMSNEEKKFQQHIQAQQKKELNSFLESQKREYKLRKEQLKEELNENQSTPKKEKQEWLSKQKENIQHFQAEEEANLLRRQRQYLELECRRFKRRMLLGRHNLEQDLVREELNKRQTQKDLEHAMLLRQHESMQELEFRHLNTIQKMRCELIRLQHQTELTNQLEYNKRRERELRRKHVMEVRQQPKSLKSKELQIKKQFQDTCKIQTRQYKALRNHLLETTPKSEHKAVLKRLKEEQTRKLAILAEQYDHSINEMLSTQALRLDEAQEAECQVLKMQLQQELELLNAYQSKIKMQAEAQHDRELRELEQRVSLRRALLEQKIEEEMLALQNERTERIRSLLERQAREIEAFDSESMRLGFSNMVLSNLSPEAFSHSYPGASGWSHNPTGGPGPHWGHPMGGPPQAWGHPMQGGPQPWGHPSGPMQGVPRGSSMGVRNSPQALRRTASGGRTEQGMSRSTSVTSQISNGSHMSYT
UniProt Q16539, whole entry: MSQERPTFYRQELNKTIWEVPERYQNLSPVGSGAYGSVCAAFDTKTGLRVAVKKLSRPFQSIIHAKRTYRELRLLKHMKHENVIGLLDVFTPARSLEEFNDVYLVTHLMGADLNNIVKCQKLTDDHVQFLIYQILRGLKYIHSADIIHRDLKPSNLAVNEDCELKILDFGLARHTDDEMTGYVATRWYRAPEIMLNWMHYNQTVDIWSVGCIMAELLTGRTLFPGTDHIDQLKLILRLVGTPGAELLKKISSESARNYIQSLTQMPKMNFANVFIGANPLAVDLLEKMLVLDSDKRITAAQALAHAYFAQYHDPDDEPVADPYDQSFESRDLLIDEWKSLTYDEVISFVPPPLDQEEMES
UniProt Q92918, whole entry: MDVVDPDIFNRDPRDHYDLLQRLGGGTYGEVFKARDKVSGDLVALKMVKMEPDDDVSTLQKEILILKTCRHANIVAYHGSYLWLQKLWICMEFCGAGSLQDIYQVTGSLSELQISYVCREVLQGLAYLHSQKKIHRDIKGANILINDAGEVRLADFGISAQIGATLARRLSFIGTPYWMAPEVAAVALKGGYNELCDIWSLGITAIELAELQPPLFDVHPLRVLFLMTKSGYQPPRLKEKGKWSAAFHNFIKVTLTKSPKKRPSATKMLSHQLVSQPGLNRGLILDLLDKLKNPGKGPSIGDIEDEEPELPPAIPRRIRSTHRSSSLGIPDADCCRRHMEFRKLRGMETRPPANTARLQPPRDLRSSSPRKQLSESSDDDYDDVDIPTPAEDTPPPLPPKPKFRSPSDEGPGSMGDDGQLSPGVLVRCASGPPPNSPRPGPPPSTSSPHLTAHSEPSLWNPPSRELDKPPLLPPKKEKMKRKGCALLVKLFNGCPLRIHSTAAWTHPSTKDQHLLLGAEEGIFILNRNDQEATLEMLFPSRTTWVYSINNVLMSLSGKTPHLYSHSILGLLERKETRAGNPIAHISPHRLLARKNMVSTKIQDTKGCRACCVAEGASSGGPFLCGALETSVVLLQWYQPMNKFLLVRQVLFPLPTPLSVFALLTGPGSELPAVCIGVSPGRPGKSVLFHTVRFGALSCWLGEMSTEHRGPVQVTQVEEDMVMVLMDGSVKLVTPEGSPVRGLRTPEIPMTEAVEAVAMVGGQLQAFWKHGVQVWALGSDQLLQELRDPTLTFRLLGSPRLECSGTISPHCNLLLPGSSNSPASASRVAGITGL
UniProt P06241, whole entry: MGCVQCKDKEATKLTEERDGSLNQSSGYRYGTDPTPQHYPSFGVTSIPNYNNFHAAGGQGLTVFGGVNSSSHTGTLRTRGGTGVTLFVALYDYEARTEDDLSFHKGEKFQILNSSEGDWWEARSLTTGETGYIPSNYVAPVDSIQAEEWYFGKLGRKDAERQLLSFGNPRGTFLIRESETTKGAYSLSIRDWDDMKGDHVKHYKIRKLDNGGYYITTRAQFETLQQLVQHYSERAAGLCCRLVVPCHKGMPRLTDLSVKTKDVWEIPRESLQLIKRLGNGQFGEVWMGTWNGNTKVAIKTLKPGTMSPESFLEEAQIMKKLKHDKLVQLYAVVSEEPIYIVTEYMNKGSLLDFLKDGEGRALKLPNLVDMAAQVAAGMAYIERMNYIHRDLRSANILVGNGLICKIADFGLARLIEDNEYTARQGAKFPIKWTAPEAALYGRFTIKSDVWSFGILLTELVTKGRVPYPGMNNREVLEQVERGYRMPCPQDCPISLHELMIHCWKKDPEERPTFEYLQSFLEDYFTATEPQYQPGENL
UniProt P42684, whole entry: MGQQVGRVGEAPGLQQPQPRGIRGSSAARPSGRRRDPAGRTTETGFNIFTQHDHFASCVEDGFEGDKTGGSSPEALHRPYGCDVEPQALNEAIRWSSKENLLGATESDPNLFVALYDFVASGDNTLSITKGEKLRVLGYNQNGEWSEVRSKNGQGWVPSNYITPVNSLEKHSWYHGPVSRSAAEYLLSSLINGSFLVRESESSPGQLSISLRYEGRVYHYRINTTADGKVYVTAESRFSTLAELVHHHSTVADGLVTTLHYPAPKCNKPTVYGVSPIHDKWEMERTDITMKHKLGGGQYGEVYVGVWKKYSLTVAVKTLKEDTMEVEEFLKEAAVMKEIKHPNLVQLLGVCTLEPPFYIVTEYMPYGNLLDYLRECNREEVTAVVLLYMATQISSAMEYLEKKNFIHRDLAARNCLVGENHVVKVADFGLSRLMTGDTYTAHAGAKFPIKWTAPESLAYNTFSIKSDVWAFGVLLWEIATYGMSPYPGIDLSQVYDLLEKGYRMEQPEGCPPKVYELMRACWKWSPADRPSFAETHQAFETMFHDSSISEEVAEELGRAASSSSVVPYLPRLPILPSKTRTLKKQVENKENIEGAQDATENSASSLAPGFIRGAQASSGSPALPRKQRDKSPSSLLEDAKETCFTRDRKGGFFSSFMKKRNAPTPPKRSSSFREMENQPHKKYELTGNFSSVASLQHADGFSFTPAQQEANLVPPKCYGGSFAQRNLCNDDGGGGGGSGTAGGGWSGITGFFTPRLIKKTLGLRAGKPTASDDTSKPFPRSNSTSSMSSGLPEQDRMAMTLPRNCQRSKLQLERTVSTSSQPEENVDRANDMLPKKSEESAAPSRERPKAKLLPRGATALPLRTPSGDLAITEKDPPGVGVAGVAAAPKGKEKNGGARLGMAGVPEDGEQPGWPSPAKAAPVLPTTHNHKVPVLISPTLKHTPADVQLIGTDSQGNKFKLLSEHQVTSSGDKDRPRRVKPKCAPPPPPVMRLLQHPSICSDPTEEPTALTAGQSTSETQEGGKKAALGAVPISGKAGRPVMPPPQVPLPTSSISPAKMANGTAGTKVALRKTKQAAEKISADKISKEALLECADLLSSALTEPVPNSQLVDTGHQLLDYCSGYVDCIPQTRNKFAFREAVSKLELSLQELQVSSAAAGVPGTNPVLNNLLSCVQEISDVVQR
UniProt P06239, whole entry: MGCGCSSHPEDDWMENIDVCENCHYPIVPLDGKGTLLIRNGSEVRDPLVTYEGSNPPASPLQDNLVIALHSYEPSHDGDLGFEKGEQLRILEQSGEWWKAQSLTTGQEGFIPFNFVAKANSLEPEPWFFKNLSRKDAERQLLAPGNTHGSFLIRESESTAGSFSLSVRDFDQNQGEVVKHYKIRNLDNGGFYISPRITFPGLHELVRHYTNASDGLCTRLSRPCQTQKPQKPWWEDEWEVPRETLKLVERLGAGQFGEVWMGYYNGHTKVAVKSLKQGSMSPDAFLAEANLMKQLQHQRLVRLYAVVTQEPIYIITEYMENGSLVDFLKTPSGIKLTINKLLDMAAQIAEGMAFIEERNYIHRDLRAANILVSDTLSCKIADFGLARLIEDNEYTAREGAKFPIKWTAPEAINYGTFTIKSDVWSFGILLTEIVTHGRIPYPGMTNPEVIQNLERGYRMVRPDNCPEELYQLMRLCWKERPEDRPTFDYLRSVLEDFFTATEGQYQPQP
UniProt P08631, whole entry: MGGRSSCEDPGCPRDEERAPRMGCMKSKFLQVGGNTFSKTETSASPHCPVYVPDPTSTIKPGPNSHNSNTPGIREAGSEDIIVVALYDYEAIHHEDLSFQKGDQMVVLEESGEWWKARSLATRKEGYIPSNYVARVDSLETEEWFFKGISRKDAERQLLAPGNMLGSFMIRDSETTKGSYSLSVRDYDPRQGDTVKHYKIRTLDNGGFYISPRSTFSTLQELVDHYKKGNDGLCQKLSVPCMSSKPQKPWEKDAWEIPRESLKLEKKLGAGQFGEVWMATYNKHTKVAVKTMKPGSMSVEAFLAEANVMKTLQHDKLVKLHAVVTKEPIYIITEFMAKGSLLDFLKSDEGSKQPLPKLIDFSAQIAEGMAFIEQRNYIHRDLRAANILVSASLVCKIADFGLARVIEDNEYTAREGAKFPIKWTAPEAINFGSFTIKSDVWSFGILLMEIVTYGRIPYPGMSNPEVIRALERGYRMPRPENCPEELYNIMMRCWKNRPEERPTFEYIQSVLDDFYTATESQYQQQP
UniProt Q9H2K8, whole entry: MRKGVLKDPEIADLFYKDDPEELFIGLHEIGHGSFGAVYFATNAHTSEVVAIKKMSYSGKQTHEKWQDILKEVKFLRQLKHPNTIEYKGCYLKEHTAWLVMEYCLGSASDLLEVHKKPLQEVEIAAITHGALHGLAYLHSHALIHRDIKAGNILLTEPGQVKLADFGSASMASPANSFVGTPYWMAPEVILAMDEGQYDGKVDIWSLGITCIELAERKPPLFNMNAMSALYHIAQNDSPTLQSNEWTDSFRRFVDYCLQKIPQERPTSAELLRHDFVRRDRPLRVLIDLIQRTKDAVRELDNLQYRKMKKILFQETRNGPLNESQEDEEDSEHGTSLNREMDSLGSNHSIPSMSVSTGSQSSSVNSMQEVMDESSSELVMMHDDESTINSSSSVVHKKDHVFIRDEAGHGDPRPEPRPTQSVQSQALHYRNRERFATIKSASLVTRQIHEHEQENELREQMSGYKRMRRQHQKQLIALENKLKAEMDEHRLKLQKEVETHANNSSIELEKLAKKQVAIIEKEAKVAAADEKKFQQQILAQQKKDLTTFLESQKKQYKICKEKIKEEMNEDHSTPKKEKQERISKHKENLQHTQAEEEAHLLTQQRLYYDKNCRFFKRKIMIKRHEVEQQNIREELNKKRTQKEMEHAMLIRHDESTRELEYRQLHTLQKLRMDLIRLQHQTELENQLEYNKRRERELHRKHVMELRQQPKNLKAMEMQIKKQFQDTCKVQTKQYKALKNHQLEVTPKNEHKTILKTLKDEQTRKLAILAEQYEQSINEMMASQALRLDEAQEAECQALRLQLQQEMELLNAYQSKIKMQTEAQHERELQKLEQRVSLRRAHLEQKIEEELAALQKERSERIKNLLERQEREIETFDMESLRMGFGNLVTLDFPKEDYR
UniProt P07948, whole entry: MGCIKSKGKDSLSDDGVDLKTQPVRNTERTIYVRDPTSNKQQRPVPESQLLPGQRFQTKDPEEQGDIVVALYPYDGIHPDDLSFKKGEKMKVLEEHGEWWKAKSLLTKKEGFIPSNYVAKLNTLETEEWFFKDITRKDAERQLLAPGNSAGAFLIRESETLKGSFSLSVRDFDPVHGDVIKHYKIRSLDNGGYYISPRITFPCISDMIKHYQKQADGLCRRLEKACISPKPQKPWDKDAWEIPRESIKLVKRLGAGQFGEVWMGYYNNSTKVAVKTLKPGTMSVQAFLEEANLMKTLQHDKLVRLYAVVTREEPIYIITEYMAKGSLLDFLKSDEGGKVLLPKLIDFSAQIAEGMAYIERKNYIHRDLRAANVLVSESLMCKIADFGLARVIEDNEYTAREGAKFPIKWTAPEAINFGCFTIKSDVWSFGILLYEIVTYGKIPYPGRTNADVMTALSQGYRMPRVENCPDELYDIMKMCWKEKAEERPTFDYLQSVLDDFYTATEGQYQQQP

The values below come from patent US20230339865A1, “QUINAZOLINE-DERIVED HCK INHIBITORS FOR USE IN THE TREATMENT OF MYD88 MUTATED DISEASES” (Dana-Farber Cancer Institute, Inc., priority 2020, published 2023).

One data set deals with SRC (Homo sapiens, UniProt P12931). As to the kind of experiment: Invitrogen kinase assay SRC. Conditions: read-out: IC50 SRC.
A short description of data set [1]: microsome stability (human).
The next data set addresses TAOK1 (Homo sapiens, UniProt Q7L7X3). As to the kind of experiment: Invitrogen kinase assay TAOK1. Conditions: read-out: IC50 TAOK1.
The target of the next data set is ABL1 (Homo sapiens, UniProt P00519). As to the kind of experiment: Invitrogen kinase assay ABL1. Conditions: read-out: IC50 ABL1.
In data set [2] the target is MAPK14 (p38 alpha) Direct (Homo sapiens, UniProt Q16539). As to the kind of experiment: Invitrogen kinase assay MAPK14 (p38 alpha) Direct. Conditions: read-out: IC50 MAPK14 (p38 alpha) Direct.
The target of a further data set is MAP4K1 (HPK1) (Homo sapiens, UniProt Q92918). Put plainly: Invitrogen kinase assay MAP4K1 (HPK1). Conditions: read-out: IC50 MAP4K1 (HPK1).
Data set [3] can be described thus: microsome stability (mouse).
A further data set addresses TAOK2 (TAO1) (Homo sapiens, UniProt Q9UL54). As to the kind of experiment: Invitrogen kinase assay TAOK2 (TAO1). Conditions: read-out: IC50 TAOK2 (TAO1).
A further data set has as its target FYN (Homo sapiens, UniProt P06241). As to the kind of experiment: Invitrogen kinase assay FYN. Conditions: read-out: IC50 FYN.
The target of a further data set is ABL2 (Arg) (Homo sapiens, UniProt P42684). As to the kind of experiment: Invitrogen kinase assay ABL2 (Arg). Conditions: read-out: IC50 ABL2 (Arg).
For the next data set, the target named is LCK (Homo sapiens, UniProt P06239). As to the kind of experiment: Invitrogen kinase assay LCK. Conditions: read-out: IC50 LCK.
The target of the next data set is HCK (Homo sapiens, UniProt P08631). As to the kind of experiment: Invitrogen kinase assay HCK. The settings on record: read-out: IC50 HCK.
The target of another data set is TAOK3 (JIK) (Homo sapiens, UniProt Q9H2K8). As to the kind of experiment: Invitrogen kinase assay TAOK3 (JIK). The settings on record: read-out: IC50 TAOK3 (JIK).
The nature of data set [4]: microsome stability (rat).
In a further data set the target is LYN A (Homo sapiens, UniProt P07948). Put plainly: Invitrogen kinase assay LYN A. The settings on record: read-out: IC50 LYN A.

On to `CCN1CCN(Cc2ccc(NC(=O)c3ccc(C)c(Oc4ncnc5cc(OC)c(OC)cc45)c3)cc2C(F)(F)F)CC1`, for which the half-maximal inhibitory concentration (IC50) on SRC came out at 117 nM; at TAOK1, 314 nM; at ABL1, 62.6 nM; in data set [2], 164 nM; at MAP4K1 (HPK1) it was 55 nM; at TAOK2 (TAO1), 238 nM. Moreover, the IC50 at FYN is 619 nM; at ABL2 (Arg) it was 73.6 nM; on LCK, 13.4 nM; at HCK it was 16.6 nM; at TAOK3 (JIK), 734 nM; on LYN A it was 23.8 nM. Also, the “microsome stability (T1/2, min)” value in data set [1] was “(rat); >120 (human) min”; in data set [3], 52 min; in data set [4], 61.4 min.
